This assay concerns the target Recombinant human 17β-HSD13 (Homo sapiens (Human), UniProt Q7Z5P4). Briefly: 17β-HSD13 rapid-fire mass spectrometry assay (RF/MS assay). Conditions: HSD17B13 80 nM, LTB4 10 μM, NAD+ 0.5 mM, RT 3 h, RF/MS readout.

Amino acid sequences for entries named in this document (tags omitted). Residues count along the entry.
UniProt Q7Z5P4, 20-300 limits assumed: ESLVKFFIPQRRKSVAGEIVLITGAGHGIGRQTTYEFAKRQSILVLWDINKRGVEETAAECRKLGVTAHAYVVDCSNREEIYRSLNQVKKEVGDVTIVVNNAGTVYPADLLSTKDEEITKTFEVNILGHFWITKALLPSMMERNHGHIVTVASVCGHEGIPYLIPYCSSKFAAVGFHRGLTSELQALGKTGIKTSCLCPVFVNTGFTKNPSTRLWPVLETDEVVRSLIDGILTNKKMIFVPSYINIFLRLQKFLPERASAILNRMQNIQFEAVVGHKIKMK

Molecules are shown by their SMILES.

One may read the IC50 as the concentration that gives 50% inhibition.

Regarding `COc1ccc(-c2nc3sc4c(OC(=O)CC[C@@H](C)[C@H]5CC[C@H]6[C@@H]7[C@H](O)C[C@@H]8C[C@H](O)CC[C@]8(C)[C@H]7C[C@H](O)[C@]56C)cccc4c3c(=O)n2Cc2cnco2)c(C2CC2)c1`, the IC50 is 100 to 1000 nM. In the case of `COc1ccc(-c2nc3sc4c(O)cccc4c3c(=O)n2Cc2cccnc2)c(C2CC2)c1`, the IC50 is less than 100 nM. Regarding `O=c1c2c(nc(CCCN3CCOCC3)n1Cc1cncs1)sc1c(O)cccc12`, the IC50 lay within 100 to 1000 nM. To `COc1ccc(-c2nc3sc4c(O)cccc4c3c(=O)n2CCOC(=O)N(C)C)c(C2CC2)c1` belongs less than 100 nM. Next, `O=c1c2c(nc(-c3ccc(F)cc3C3CC3)n1CCn1cccn1)sc1c(O)cccc12`: 100 to 1000 nM.

The record behind these values is patent US20230416268A1, “PYRIMIDINONE-CONTAINING 17-BETA-HYDROXYSTEROID DEHYDROGENASE TYPE 13 INHIBITORS” (ENANTA PHARMACEUTICALS, INC., priority 2022, published 2023).
